The results in this text go back to US20230148214A1, “INDAZOLES AND AZAINDAZOLES AS LRRK2 INHIBITORS” (ESCAPE Bio, Inc., priority 2020, published 2023).

Sequences of proteins named here, by UniProt entry; tags and fusion partners are left off. A change or cut given only in a name is not applied to a line headed by its entry.
UniProt Q5S007, whole entry: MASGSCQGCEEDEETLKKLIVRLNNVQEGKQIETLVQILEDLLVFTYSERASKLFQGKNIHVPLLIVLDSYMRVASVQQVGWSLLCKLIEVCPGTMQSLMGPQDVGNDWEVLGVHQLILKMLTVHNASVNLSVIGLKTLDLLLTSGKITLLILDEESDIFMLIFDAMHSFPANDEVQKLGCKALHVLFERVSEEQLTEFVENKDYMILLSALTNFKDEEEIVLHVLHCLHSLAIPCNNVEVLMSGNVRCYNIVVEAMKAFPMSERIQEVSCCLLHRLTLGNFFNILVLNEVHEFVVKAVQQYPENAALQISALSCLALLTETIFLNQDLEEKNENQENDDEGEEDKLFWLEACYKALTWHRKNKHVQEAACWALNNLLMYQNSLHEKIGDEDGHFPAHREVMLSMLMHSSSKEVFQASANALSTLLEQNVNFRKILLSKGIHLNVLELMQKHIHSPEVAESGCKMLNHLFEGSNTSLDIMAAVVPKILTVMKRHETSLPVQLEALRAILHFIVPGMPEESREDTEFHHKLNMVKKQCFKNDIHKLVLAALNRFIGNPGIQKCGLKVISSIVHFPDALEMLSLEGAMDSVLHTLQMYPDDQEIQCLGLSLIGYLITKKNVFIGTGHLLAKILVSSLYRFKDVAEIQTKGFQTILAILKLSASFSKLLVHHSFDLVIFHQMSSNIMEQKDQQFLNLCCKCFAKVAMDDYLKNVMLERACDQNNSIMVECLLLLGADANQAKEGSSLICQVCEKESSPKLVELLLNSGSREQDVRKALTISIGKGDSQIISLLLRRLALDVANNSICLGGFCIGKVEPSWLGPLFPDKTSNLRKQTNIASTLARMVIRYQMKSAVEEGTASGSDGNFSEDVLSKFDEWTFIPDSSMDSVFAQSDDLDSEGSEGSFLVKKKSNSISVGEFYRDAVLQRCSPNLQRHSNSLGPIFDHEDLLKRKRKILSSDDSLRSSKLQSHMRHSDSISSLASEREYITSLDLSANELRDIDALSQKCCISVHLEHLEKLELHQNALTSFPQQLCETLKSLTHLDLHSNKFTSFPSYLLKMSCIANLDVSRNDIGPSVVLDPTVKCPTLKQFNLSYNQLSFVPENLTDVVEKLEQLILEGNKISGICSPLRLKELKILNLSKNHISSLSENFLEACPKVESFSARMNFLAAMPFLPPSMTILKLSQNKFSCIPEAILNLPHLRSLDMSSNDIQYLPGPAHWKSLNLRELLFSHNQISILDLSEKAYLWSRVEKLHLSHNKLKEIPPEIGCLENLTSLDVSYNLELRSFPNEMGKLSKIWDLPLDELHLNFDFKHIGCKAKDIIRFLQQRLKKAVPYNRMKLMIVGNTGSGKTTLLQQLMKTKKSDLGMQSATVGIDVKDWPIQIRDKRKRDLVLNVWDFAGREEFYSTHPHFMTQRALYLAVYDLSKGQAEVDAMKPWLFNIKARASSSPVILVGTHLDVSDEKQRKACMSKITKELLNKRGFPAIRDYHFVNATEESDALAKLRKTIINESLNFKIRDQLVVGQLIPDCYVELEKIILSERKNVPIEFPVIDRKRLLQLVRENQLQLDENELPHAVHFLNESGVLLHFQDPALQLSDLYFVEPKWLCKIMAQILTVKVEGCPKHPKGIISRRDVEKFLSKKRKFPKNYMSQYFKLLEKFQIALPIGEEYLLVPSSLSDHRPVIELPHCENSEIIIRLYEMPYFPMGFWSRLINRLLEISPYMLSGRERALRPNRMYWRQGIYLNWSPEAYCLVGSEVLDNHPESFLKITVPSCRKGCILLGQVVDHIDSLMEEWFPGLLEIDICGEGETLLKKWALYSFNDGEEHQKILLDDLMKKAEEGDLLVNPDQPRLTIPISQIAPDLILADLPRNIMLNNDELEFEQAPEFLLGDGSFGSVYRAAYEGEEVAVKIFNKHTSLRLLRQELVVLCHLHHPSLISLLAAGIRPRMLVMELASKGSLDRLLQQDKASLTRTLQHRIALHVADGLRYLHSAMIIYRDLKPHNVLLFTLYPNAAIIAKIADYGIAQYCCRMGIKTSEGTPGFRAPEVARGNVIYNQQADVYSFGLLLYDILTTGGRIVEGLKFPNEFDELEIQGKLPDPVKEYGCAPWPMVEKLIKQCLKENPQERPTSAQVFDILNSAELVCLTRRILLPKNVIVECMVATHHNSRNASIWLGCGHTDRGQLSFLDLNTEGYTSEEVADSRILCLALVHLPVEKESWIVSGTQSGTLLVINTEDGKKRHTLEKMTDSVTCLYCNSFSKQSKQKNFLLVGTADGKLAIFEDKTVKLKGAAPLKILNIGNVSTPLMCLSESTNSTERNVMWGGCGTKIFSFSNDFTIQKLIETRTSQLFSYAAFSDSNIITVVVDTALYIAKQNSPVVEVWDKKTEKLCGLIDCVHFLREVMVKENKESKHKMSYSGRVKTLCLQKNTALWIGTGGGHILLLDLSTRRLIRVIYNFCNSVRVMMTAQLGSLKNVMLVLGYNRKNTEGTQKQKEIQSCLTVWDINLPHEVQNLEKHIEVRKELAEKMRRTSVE
UniProt Q5S007, whole entry G2019S: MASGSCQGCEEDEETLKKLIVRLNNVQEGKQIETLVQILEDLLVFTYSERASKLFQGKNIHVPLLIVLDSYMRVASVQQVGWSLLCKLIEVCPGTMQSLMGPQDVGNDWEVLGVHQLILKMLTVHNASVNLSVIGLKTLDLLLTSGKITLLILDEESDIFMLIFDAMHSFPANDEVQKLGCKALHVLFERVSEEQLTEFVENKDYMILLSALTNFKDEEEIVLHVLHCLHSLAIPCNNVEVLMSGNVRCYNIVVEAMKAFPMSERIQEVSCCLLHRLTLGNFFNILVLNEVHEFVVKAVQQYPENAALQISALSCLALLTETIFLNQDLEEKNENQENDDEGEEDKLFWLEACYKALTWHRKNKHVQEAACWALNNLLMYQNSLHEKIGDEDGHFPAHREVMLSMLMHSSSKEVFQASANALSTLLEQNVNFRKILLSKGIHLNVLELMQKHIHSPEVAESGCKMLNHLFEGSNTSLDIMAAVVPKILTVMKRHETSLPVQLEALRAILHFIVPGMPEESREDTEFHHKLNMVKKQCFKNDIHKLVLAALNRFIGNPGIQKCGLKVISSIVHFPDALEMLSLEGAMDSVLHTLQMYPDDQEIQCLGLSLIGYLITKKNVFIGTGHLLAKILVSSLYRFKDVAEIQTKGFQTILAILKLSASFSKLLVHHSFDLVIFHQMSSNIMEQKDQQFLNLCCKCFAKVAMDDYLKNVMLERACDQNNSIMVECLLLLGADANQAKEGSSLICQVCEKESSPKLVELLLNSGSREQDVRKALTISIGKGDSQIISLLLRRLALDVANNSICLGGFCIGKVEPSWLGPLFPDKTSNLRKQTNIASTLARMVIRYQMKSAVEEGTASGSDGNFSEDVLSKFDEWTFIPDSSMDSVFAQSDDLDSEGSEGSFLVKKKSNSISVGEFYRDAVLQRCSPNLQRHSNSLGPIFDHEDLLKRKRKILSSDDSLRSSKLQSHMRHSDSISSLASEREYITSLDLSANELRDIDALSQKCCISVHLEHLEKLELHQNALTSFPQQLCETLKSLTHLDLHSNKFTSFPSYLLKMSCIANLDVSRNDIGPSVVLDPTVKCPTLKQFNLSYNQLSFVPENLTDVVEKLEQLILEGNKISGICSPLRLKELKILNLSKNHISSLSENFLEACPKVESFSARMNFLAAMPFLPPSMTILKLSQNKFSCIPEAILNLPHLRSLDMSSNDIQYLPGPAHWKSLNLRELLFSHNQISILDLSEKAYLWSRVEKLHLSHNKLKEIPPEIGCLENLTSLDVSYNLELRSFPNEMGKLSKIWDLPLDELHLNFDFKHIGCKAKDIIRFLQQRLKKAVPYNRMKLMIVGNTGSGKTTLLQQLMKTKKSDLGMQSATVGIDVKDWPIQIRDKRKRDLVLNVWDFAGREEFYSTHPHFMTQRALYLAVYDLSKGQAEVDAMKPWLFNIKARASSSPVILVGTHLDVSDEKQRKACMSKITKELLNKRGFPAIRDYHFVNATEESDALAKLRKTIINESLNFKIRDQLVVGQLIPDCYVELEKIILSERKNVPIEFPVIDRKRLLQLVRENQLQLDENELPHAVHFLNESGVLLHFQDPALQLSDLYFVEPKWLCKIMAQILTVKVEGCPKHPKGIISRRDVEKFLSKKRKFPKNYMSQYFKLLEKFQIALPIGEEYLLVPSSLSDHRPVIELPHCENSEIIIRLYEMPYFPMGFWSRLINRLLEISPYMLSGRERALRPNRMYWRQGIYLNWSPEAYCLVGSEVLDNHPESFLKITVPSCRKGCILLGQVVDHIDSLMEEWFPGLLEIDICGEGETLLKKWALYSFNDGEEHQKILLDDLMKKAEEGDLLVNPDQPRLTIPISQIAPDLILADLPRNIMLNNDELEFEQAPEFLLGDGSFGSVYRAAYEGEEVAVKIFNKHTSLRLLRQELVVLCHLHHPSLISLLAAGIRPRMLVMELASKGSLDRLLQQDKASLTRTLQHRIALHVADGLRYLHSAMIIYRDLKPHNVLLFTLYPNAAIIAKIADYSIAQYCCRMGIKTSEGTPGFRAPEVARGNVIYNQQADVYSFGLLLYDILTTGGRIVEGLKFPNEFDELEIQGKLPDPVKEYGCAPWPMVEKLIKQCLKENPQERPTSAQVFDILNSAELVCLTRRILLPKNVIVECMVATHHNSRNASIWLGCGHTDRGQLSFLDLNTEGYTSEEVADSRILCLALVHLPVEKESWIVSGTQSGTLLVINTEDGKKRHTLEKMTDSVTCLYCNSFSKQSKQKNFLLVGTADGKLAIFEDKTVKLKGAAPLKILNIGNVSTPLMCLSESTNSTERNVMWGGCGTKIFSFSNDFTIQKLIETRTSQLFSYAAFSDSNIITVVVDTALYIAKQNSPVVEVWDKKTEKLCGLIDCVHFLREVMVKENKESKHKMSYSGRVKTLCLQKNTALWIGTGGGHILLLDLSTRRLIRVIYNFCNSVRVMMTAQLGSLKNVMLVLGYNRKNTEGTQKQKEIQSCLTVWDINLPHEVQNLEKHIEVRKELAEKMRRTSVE

A value given as a limit tells only on which side of the number the result lay.

One experiment concerns the target LRRK2 G2019S (Homo sapiens, UniProt Q5S007, G2019S). Briefly: LRRK2 Kinase Activity Assay (LanthaScreen TR-FRET), G2019S. The following applies: read-out: LRRK2 G2019S IC50; recombinant G2019S-LRRK2, 25 μM ATP, 400 nM LRRKtide, 60 min; class symbols. On the technique in general: Time-resolved FRET reads energy transfer from a long-lived donor to a nearby acceptor.

In the next experiment the target is LRRK2 WT (Homo sapiens, UniProt Q5S007). The experiment in a line: LRRK2 Kinase Activity Assay (LanthaScreen TR-FRET), wild type. Conditions: read-out: LRRK2 WT IC50; recombinant wild type LRRK2, 25 μM ATP, 400 nM LRRKtide, 60 min; class symbols.

The IC50 is the concentration that inhibits the measured activity by half. As to `Cc1cc2[nH]nc(-c3cnco3)c2cc1NC1CCCc2cc(C#N)cnc21` (single isomer, unassigned), the IC50 at LRRK2 G2019S and on LRRK2 WT was under 100 nM each time.

As for `N#Cc1ccc2c(c1)CCCC2Oc1ccc2[nH]nc(C(F)(F)F)c2c1` (single isomer, unassigned), the IC50 is under 100 nM at LRRK2 G2019S and 1000 to 10000 nM on LRRK2 WT.
